Bioassay records deposited in PubChem BioAssay by ICCB-Longwood Screening Facility, Harvard Medical School.
HCMV NEC inh – inhibitors of HCMV UL50-UL53 interaction, biochemical, HTRF; HCMV UL50-UL53 nuclear egress complex (human cytomegalovirus); normalized percent inhibition; inhibition, % (test concentration not listed); actives 0.15% (n = 190,000); AID 1918969, 2023; in the data active means inhibition above about 27%, passing the limit was not always enough
GIV Gai3 FP – inhibitors of GIV GBA-motif binding to rat Galpha-i3; P08753; Galpha-i3/FITC-GIV peptide fluorescence polarization, 90 min; hits give low values; scaled: aluminum fluoride 0%, vehicle 100%; percent of control (FP), % (test concentration not listed); actives 0.42% (n = 210,000); AID 1224905;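 active = replicate mean at 85% of control or lower, very high polarization wells dropped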;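 also: wells of about 15 µL received 100 nL stock; the first replicate is given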
GIV Gai FP conf – inhibitors of GIV peptide binding to Galpha-i3, confirmation, biochemical, fluorescence polarization, FITC-GIV peptide, rat Galphai3; shares compounds with GIV Gai3 FP; fluorescence polarization, mP at 100 µM; actives 38% (n = 580); stronger effect = lower value;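 active means inhibition score of 15 or more, meaning 100 minus mean polarization as percent of control over three replicates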
GIV Gai AS conf – inhibitors of GIV binding to Galpha-i3, confirmation, orthogonal assay for GIV-Galpha-i inhibitor project, biochemical, AlphaScreen, His-GIV, GST-Galphai3; shares compounds with GIV Gai3 FP; purified proteins, 90 min; stronger effect = lower value; AlphaScreen counts at 100 µM; actives 39% (n = 580);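 active means inhibition score at or above a set limit, where the score is 100 minus the three-replicate mean percent of control signal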
Numbers without * were called inactive. The full list was thinned out, with hits kept by preference.

How did CCCCNC(=O)CSc1nc2sc(C(=O)OCC)c(C)c2c(=O)n1CC1CCCO1 (stereo not given) do in these assays?
GIV Gai3 FP: 102.7

Results for CCc1ccc2nc(N)sc2c1 ?
GIV Gai3 FP: 100.0

How did Nc1nc2ccc(CCC(=O)O)cc2s1 do in these assays?
HCMV NEC inh: 2.0; GIV Gai3 FP: 56.8*; GIV Gai FP conf: 60.1*; GIV Gai AS conf: 3278*

Results for COc1cc(C2NC(=O)NC(C)=C2C(=O)OCC(F)(F)F)ccc1OCc1ccccc1 (stereo not given) ?
HCMV NEC inh: -11.1; GIV Gai3 FP: 107.7

How did C/C(=N/NC(=O)C(F)(F)F)c1cccs1 do in these assays?
HCMV NEC inh: -7.1; GIV Gai3 FP: 103.5

How did C/C(=N\NC(=O)C(F)(F)F)c1ccccc1O do in these assays?
HCMV NEC inh: 2.7; GIV Gai3 FP: 93.5; GIV Gai FP conf: 72; GIV Gai AS conf: 56622

What do the screens show for `CC1CCC(NS(=O)(=O)c2ccc3c(c2)CCN3C(=O)NC2CCCCC2)CC1` (stereo not given)?
HCMV NEC inh: 3.4; GIV Gai3 FP: 101.7

Results for O=C(/C=C/C=C/c1ccccc1)CC1(O)C(=O)Nc2ccc(Br)cc21 (stereo not given) ?
GIV Gai3 FP: 101.1

Results for Cn1c(=O)cc2c3c(c(Nc4ccccc4)ccc31)C(=O)c1ccccc1-2 ?
GIV Gai3 FP: 100.8

How did CC(=O)Nc1ccc2c3c(cc(=O)n2C)-c2ccccc2C(=O)c13 do in these assays?
GIV Gai3 FP: 84.6*; GIV Gai FP conf: 68.8; GIV Gai AS conf: 46281

What do the screens show for `COc1ccc(NC(=O)c2cnn3c2NC(c2cccc(OC)c2)CC3C(F)(F)F)cc1` (stereo not given)?
HCMV NEC inh: -28.0; GIV Gai3 FP: 103.1

Results for Brc1ccc(C=NC2CCCCC2)cc1 ?
GIV Gai3 FP: 93.5

How did NC1=NC(=O)/C(=C/c2cccs2)S1 do in these assays?
HCMV NEC inh: -62.8; GIV Gai3 FP: 105.6

How did CC(=O)NC1=NC(=O)/C(=C\c2cccs2)N1C do in these assays?
HCMV NEC inh: -75.8; GIV Gai3 FP: 80.3*; GIV Gai FP conf: 45.3*; GIV Gai AS conf: 83504

Results for O/N=C/c1nc(-c2ccccc2)n2ccccc12 ?
HCMV NEC inh: -29.5

Retrieved by structure from the entries so far, two records:
How did NC1=NC(=O)/C(=C/c2cccs2)S1 do in these assays?
HCMV NEC inh: -62.8; GIV Gai3 FP: 105.6

Results for CCc1ccc2nc(N)sc2c1 ?
GIV Gai3 FP: 100.0

The listing picks up; the 2 compounds before the break are reprinted first.
How did CC(=O)NC1=NC(=O)/C(=C\c2cccs2)N1C do in these assays?
HCMV NEC inh: -75.8; GIV Gai3 FP: 80.3*; GIV Gai FP conf: 45.3*; GIV Gai AS conf: 83504

Results for O/N=C/c1nc(-c2ccccc2)n2ccccc12 ?
HCMV NEC inh: -29.5

Results for CCCC(=O)N(Cc1nc2nc(C)cc(C)n2n1)c1ccccc1 ?
HCMV NEC inh: -2.7; GIV Gai3 FP: 107.9

What do the screens show for `Cc1cc(C)n2nc(CN(C(=O)CC(C)C)c3ccccc3)nc2n1`?
HCMV NEC inh: 3.6; GIV Gai3 FP: 91.8; GIV Gai FP conf: 70.6; GIV Gai AS conf: 35999

How did O=C1NC(=S)NC(=O)C1=Cc1cccc(O)c1Cl do in these assays?
HCMV NEC inh: -11.2; GIV Gai3 FP: 77.4*; GIV Gai FP conf: 69.2; GIV Gai AS conf: 4117*

Results for CC(C)(C)c1ccc(OCCOc2ccccc2C=C2C(=O)NC(=S)NC2=O)cc1 ?
HCMV NEC inh: -20.4; GIV Gai3 FP: 94.8

Results for Cc1ccc2nc(Nc3ccc(F)cc3C)c3nncn3c2c1 ?
HCMV NEC inh: 2.8; GIV Gai3 FP: 96.1

Results for O=C(c1cc2cc(Br)ccc2[nH]1)N1CCN(C(=O)c2ccccc2F)CC1 ?
GIV Gai3 FP: 102.3

Results for Cc1c2c(n3c(nc4ccccc43)c1C#N)N(C1CCCC1)CC2 ?
HCMV NEC inh: -15.5; GIV Gai3 FP: 101.0

How did Cc1c2c(n3c(nc4ccccc43)c1C#N)N(CCN1CCOCC1)CC2 do in these assays?
HCMV NEC inh: -26.8; GIV Gai3 FP: 97.3; GIV Gai FP conf: 76; GIV Gai AS conf: 30989

Results for C/C(Nc1nc(-c2cc(C)n(Cc3ccccc3Cl)c2C)cs1)=C(/C#N)C(N)=O ?
HCMV NEC inh: -17.8

How did CCCCOC1CCC(OCCCC)OC1 (stereo not given) do in these assays?
HCMV NEC inh: 6.0

What do the screens show for `COn1c2c(c3c4nonc4ccc31)CCCC2`?
HCMV NEC inh: -2.1; GIV Gai3 FP: 101.5

Results for On1c2c(c3c4nonc4ccc31)CCCC2 ?
HCMV NEC inh: 55.7; GIV Gai3 FP: 49.7*; GIV Gai FP conf: 41.7*; GIV Gai AS conf: 10129*

What do the screens show for `Brc1ccc(C2=CSc3ccccc3N2)cc1`?
GIV Gai3 FP: 105.5

Results for CC(C)Nc1ccc(-c2nc(-c3ccco3)no2)cc1[N+](=O)[O-] ?
HCMV NEC inh: -3.5; GIV Gai3 FP: 90.4; GIV Gai FP conf: 81.2; GIV Gai AS conf: 30875
